Among the data in BindingDB's records for doi:10.1016/0028-3908(88)90149-9 (Organon International, 1988) are Ki values, retold here.

Sequences of proteins named here, by UniProt entry; tags and fusion partners are left off.
UniProt P23977, whole entry: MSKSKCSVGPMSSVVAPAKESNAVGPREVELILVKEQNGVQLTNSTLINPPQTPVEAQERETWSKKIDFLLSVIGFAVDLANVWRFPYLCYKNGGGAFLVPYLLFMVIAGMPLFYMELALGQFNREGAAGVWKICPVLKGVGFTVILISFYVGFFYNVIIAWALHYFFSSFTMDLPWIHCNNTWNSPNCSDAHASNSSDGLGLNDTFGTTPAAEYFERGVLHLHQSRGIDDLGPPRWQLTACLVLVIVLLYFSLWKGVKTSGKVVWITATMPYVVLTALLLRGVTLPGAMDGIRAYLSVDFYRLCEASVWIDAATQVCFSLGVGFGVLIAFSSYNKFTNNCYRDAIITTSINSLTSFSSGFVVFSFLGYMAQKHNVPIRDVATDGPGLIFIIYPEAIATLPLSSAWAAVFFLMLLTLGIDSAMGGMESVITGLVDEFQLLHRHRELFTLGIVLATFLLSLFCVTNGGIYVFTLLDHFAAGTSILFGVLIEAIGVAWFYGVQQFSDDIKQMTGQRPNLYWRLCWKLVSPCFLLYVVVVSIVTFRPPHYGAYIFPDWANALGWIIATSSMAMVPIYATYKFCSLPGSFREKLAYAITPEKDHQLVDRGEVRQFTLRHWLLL
UniProt P31652, whole entry: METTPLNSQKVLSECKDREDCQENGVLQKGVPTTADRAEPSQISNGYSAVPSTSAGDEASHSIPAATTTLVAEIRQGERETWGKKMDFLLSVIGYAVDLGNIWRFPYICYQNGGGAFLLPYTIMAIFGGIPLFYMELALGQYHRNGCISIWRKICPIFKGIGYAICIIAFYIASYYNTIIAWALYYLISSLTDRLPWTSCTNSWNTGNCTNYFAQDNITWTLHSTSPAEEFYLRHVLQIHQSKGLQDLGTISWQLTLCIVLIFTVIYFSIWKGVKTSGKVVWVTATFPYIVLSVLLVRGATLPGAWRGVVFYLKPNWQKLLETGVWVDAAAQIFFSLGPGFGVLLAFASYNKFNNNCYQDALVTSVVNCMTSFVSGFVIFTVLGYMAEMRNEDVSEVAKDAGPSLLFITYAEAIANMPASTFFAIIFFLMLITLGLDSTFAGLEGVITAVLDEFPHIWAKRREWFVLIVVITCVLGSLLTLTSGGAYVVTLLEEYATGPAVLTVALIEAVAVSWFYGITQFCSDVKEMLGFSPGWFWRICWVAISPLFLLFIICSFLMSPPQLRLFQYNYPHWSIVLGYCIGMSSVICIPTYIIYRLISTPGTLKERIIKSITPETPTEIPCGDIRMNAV
UniProt P31390, whole entry: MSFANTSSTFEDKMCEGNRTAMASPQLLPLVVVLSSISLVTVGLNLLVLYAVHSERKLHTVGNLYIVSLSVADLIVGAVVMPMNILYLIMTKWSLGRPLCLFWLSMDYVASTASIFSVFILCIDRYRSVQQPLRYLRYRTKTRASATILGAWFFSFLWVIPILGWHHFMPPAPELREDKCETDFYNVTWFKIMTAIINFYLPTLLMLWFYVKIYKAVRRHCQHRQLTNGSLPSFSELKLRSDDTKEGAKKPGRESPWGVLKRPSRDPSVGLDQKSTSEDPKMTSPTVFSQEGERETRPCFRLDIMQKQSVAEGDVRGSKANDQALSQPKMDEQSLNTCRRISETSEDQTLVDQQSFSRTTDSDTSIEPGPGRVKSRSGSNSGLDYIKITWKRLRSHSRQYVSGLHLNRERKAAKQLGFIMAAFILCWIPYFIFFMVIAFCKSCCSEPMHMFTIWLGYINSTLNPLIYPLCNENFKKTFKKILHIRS
UniProt P61169, whole entry: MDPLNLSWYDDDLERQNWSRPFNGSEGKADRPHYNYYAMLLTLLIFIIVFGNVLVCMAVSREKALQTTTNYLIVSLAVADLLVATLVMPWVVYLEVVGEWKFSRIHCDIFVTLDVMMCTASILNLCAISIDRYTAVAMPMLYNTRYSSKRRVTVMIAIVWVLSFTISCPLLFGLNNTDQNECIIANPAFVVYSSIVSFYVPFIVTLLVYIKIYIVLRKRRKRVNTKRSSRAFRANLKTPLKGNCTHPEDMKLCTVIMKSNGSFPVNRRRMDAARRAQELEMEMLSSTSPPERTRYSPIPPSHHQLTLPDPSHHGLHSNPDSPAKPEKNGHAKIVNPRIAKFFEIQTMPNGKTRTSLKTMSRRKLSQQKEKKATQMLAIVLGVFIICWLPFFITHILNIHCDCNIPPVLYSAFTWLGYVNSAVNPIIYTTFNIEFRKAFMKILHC

Test [1] deals with Sodium-dependent dopamine transporter (Rattus norvegicus, UniProt P23977).
Test [2] deals with Sodium-dependent serotonin transporter (Rattus norvegicus, UniProt P31652).
For a further test, the target named is Histamine H1 receptor (Rattus norvegicus, UniProt P31390).
A further test deals with D(2) dopamine receptor (Rattus norvegicus, UniProt P61169).

“And” between values parts separate entries of the source, which are not always exact repeats. Identical values can stand only once.

A word on the Ki: it is a measure of affinity in units of concentration, obtained from inhibition or displacement. Take `CN(C)CCCN1c2ccccc2CCc2ccccc21`: the Ki in test [1] is > 10000 nM.
As to `CN1Cc2c(N)cccc2[C@H](c2ccccc2)C1` [(+/-)-2-Methyl-4-phenyl-1,2,3,4-tetrahydro-isoquinolin-8-ylamine], the Ki in test [2] was 3980 nM. This counts as single-digit micromolar.
Consider `CN1CCN2c3ccccc3Cc3ccccc3[C@H]2C1` [MIANSERIN (+)], for which the Ki at Histamine H1 receptor is 1.78 nM and 1 nM and 4.07 nM; at D(2) dopamine receptor, > 10000 nM.
